In assay [1] the target is T1, GABA-AT (Sus scrofa (Pig), UniProt P80147). The assay can be described thus: Time-dependent inhibition (inactivation) of GABA-AT, Kitz and Wilson replot. In kind it is biochemical. The conditions noted are these: for Efficiency as inactivator of GABA-AT relative to vigabatrin (from kinact/KI) / KI (inactivation): pH 6.5, 25° C.; for KI (inactivation): Kitz and Wilson replot, read-out: Ki (inactivation constant KI). As for the experimental part:
(§1) GABA-AT was isolated and purified from pig brain by a published procedure.
GABA-AT (17.5 μL) was incubated in the presence of varying concentrations of each compound (70 μL final volume) at 25° C. in 50 mM potassium pyrophosphate buffer solution, pH 6.5, containing 5 mM α-ketoglutarate and 1 mM β-mercaptoethanol. […] The relative enzyme activity was determined by normalizing the rate of increasing absorbance at 340 nm to a control. A Kitz and Wilson replot was used to determine the kinetic constants KI and kinact.

By UniProt entry, the sequences of proteins in these tests, tags left out. Residues count along the entry.
UniProt P80147, 29-500 limits assumed: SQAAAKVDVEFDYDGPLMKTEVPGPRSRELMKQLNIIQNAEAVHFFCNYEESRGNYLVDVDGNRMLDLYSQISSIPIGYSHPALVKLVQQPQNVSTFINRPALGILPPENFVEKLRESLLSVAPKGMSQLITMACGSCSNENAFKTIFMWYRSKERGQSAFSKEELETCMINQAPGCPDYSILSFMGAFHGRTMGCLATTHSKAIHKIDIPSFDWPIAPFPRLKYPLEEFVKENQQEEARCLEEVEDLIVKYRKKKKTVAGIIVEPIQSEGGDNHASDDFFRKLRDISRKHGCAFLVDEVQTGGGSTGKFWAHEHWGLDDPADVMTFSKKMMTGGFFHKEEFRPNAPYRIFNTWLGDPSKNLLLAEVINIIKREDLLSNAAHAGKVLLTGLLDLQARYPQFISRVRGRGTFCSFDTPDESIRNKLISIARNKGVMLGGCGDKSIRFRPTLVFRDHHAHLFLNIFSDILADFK

Assay [2] deals with T1, GABA-AT. Nature of the assay: Inhibition of GABA-AT, coupled assay with SSDH. As to conditions: pH 8.5, 25° C., from IC50 by Cheng-Prusoff; read-out: Ki (reversible inhibition). In kind it is biochemical. As for the experimental part: as §1
Inhibition constants were determined by monitoring GABA-AT activity in the presence of 0-50 mM concentrations of synthesized analogues using a coupled assay with the enzyme succinic semialdehyde dehydrogenase (SSDH). The assay solution consisted of 10 mM GABA, 5 mM α ketoglutarate, 1 mM NADP^+, 5 mM β-mercaptoethanol, and excess SSDH in 50 mM potassium pyrophosphate buffer, pH 8.5. Enzyme activity was determined by observing the change in absorbance at 340 nm at 25° C. IC50 values were obtained using non-linear regression in GraphPad Prism5 software. Subsequent Ki values were determined using the Cheng-Prusoff relationship. (Yung-Chi, C.; Prusoff, W. H. Biochem. Pharmacol. 1973, 22, 3099-3108.)

For orientation: Ki means the dissociation constant of the complex between target and ligand, obtained from inhibition or displacement.

With `Cl.N[C@@H]1CS[C@H](C(=O)O)C1` [Compound 17, (2S,4S)-4-Aminotetrahydrothiophene-2-carboxylic acid hydrochloride], at GABA-AT [1], the “Inactivation rate constant relative to vigabatrin” value is reported as about 20 times, the “Efficiency as inactivator of GABA-AT relative to vigabatrin (from kinact/KI)” value is recorded as “eight” and the KI (inactivation) came out at 0.182 mM.
For `Cl.N[C@@H]1CS[C@@H](C(=O)O)C1` [Compound 18, (2R,4S)-4-Aminotetrahydrothiophene-2-carboxylic acid hydrochloride], at GABA-AT [1], the “Efficiency as inactivator of GABA-AT relative to vigabatrin (from kinact/KI)” value is on record as “half as efficient” and the KI (inactivation) was 2.23 mM.
With `N[C@H]1CS[C@@H](C(=O)O)C1` [Compound 20], at GABA-AT [2], the inhibition constant Ki turned out to be 3.4 ± 0.8 mM.
Same read-out and setting: the value for `N[C@H]1CS[C@H](C(=O)O)C1` [Compound 21] was 3.3 ± 0.7 mM.

These data come from patent US10189807B2, “Tetrahydrothiophene-based GABA aminotransferase inactivators” (Northwestern University, priority 2015, dated 2019).
